The values below are quoted from earlier work in patent publication US20160052846A1, “METHOD OF DEMULSIFYING AND PURIFYING ORGANIC PRODUCTS FROM AN EMULSION” (CODEXIS, INC., priority 2012, published 2016).

Like-named read-outs stand apart in the source and are kept apart here.

Take butan-1-ol [Butanol]: the “Water sol (g per 100 g)” value (at 15° C.) is 9 at 15 °C g per 100 g. Take butan-2-ol [2-butanol]: where the note is “at 20° C.”, the “Water sol (g per 100 g)” value was 12.5 at 20 °C g per 100 g.
